Results reported in ChEMBL document CHEMBL4610001 (J Med Chem, 2020).
Calls of active or inactive are those of the source.

Amino acid sequences for entries named in this document (tags omitted). A change or cut given only in a name is not applied to a line headed by its entry.
UniProt P61794: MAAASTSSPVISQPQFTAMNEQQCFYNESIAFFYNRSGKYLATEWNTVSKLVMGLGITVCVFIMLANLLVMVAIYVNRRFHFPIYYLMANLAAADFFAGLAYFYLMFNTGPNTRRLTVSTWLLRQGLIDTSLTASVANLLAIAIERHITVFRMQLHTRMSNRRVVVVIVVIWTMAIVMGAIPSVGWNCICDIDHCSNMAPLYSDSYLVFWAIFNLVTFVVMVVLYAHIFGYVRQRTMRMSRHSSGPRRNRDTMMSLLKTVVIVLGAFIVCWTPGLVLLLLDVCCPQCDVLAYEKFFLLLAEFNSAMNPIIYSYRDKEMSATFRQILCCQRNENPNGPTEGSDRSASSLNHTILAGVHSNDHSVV

Columns and labels:
[1] = target: Lysophosphatidic acid receptor 1 (Rattus norvegicus) (UniProt P61794); assay: Agonist activity at LPA1 receptors in Wistar rat DRG neurons assessed as increase in calcium influx at 10 uM measured after 10 secs in presence of capsaicin by Fluo-4 NW dye based inverted microscopic method; format: functional
In short: (§1)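 DRG neurons from 3–5-day-old Wistar rats were collagenase-digested and cultured 48 h with NGF. Cells loaded with 5 μM Fluo-4AM and 0.02% pluronic in HEPES-buffered HBSS pH 7.4 for 1 h at 37°C, then perfused at rt. Compound given at 10 μM final (from 10 mM DMSO stock) as 10 s pulses. Capsaicin and 40 mM KCl (10 s, viability) also applied. Signal is peak minus baseline fluorescence; a response is >20% over baseline.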

[2] = target: Lysophosphatidic acid receptor 1 (Rattus norvegicus) (UniProt P61794); assay: Induction of LPA1 receptor desensitization in Wistar rat DRG neurons assessed as reduction in calcium influx at 10 uM treated twice after 10 secs in presence of capsaicin by Fluo-4 NW dye based inverted microscopic method; format: functional; in short: as §1
[3] = target: Lysophosphatidic acid receptor 1 (Rattus norvegicus) (UniProt P61794); assay: Agonist activity at LPA1 receptors in Wistar rat DRG neurons assessed as increase in neuronal activity at 10 uM incubated for 15 secs in presence of capsaicin by Microelectrode Array
In short: (§2)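 Neonatal Wistar rat DRG neurons, cultured 48 h on poly-L-lysine/laminin-coated 60-electrode MEA chips. Compound perfused at 10 μM final for 15 s at 2 mL/min. Extracellular activity recorded at 25 kHz; output is mean spike frequency.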

[4] = target: Lysophosphatidic acid receptor 1 (Rattus norvegicus) (UniProt P61794); assay: Induction of LPA1 receptor desensitization in Wistar rat DRG neurons assessed as reduction in neuronal activity at 10 uM treated for 15 secs twice with 4 mins interval in presence of capsaicin by microelectrode Array; in short: as §2

Measured: Activity

O=C(CCCCCCCCCc1ccccc1)O[C@H](CBr)COP(=O)(O)O
active: all assays above
